Assay results taken from PubChem BioAssay AID463165 (Johns Hopkins Ion Channel Center, 2010).
This is a selection; strong and weak results do not stand in their true shares. Active and inactive are the calls of the source.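 How the source made its calls: active means B-score, a plate-corrected calcium signal, over three deviations above library mean, with baseline fluorescence within five deviations of library mean; inactive means the rest.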

Amino acid sequences for entries named in this document (tags omitted).
UniProt P49798, whole entry: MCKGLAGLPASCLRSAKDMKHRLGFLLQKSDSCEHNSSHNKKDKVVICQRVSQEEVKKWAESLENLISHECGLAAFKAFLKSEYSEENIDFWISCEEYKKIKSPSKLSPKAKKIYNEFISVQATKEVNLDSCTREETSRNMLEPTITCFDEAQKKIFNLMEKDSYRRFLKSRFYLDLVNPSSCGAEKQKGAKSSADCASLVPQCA

molecular target: Regulator of G-protein signaling 4 (Homo sapiens) (UniProt P49798); assay: RGS4 inhibitors, primary screen, cell-based, HEK293 M3R inducible RGS4, calcium flux (AID 463165); conditions: Fluo-4 calcium flux, at 10 µM, triggered by carbachol at its EC20;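 further: RGS4 expression induced by doxycycline in cells with stable M3 receptor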

SMILES | outcome
C[C@@H]1C=CCP(=O)(Oc2ccccc2)O1 (some centres not stated) | inactive
C[C@H]1OP(=O)(Oc2ccccc2)C[C@@H]2O[C@@H]21 (some centres not stated) | inactive
O=C(OCCN1CCN(CCOCc2ccccc2)CC1)C(O)(c1ccccc1)c1ccccc1 | inactive
CCOC(=O)c1ccc(NP(C)(=O)Oc2cc(C)cc(C)c2)cc1 (configuration not stated) | inactive
Cc1cc(C)cc(OP(C)(=O)Nc2ccc(C)cc2C)c1 (configuration not stated) | inactive
O=[As](O)(c1cccc(O)c1)c1cccc(O)c1 | inactive
Cc1cccc(OCC(=O)OC2CN3CCC2CC3)c1 (configuration not stated) | inactive
CS(=O)(=O)c1ccc(Cl)c(NC(=O)COC(=O)C(O)(c2ccccc2)c2ccccc2)c1 | inactive
COc1ccccc1OP(C)(=O)Nc1cccc(Br)c1 (configuration not stated) | inactive
COc1cc(C(=O)NCC2(N3CCOCC3)CCCCC2)cc(Cl)c1OC(C)C | inactive
O=[As](O)(O)c1cccnc1 | inactive
O=C(OC1CN2CCC1CC2)c1ccc(Cl)cc1 (configuration not stated) | inactive
CCOP(=O)(Nc1cccc2ccccc12)OCC | inactive
CCCOP(=S)(Nc1nc(N)cc(=O)[nH]1)OCCC | inactive
Cc1ccc(C)c(NP(C)(=O)Oc2ccccc2)c1 (configuration not stated) | inactive
Nc1cccc2c([As](=O)(O)O)cccc12 | inactive
Cc1ccc(NCCc2c([N+](=O)[O-])cc([N+](=O)[O-])cc2[N+](=O)[O-])cc1 | inactive
CP(=O)(Nc1cccc(Br)c1)Oc1ccccc1 (configuration not stated) | inactive
Cc1cc(C)cc(OP(C)(=O)Nc2ccccn2)c1 (configuration not stated) | inactive
O=C(O)COc1ccc([As](=O)(O)O)cc1[N+](=O)[O-] | inactive
Nc1ccccc1[As](=O)(O)c1ccccc1 | inactive
CS(=O)(=O)c1cc([N+](=O)[O-])c2no[n+]([O-])c2c1 | inactive
O=P(Nc1nccs1)(c1ccccc1)c1nc2ccccc2s1 (configuration not stated) | inactive
O=P(Nc1nccs1)(Oc1ccccc1)Oc1ccccc1 | inactive

SMILES | outcome
O=C(O)c1cccc(Nc2c([N+](=O)[O-])cc([N+](=O)[O-])cc2[N+](=O)[O-])c1 | inactive
CCOP1(=S)c2c(C)nn(CCC#N)c2N=C(c2ccccc2F)N1C (configuration not stated) | inactive
CN(C(=O)Cc1ccc(Cl)c(Cl)c1)[C@H]1CC[C@@]2(CCCO2)C[C@@H]1N1CCCC1 | inactive
CC1=NCCc2c1[nH]c1ccccc21.O=[N+]([O-])c1cc([N+](=O)[O-])c(O)c([N+](=O)[O-])c1 | inactive
CN(C)C(=O)c1cc([N+](=O)[O-])cc2c1-c1c(cc([N+](=O)[O-])cc1[N+](=O)[O-])C2=O | inactive
O=[N+]([O-])c1ccc2c(c1)nnn2O | inactive
CN(C(=O)Cc1ccccc1)[C@@H]1CC[C@]2(CCCO2)C[C@H]1N1CCCC1 | inactive
CCOP1(=S)c2c(C)nn(CCC#N)c2N=C(c2ccc(F)cc2)N1C (configuration not stated) | inactive
N#CCCN(C(=O)COC(=O)C(O)(c1ccccc1)c1ccccc1)c1ccc(F)cc1 | inactive
NC(=O)Nc1ccc([As](=O)(O)O)cc1 | inactive
O=C(/C=C/c1ccccc1)OC1CN2CCC1CC2 (configuration not stated) | inactive
CCOC(=O)C(CC)C1=NC(C)(C)Cc2ccccc21.O=[N+]([O-])c1cc([N+](=O)[O-])c(O)c([N+](=O)[O-])c1 (configuration not stated) | inactive
O=[N+]([O-])c1cc([N+](=O)[O-])c(Nc2nnnn2CCO)c([N+](=O)[O-])c1 | inactive
CN(C)C1(CNC(=O)c2ccc(S(C)(=O)=O)cc2)CCCCC1 | inactive
COc1cc(C2NCCC3(OCCO3)C2(C)C)cc(OC)c1OC.O=[N+]([O-])c1cc([N+](=O)[O-])c(O)c([N+](=O)[O-])c1 (configuration not stated) | inactive
Cc1ccc(C(=O)OC2CN3CCC2CC3)cc1 (configuration not stated) | inactive
CC1CCC(C(C)C)C(OP(=O)(Nc2ccccn2)c2ccccc2)C1 (configuration not stated) | inactive
Cc1nn(-c2ccccc2)c2c1P(=O)(N1CCOCC1)N(C)C(c1ccccc1)=N2 (configuration not stated) | inactive
O=P1(Nc2ccc(Br)cn2)COc2ccccc2OC1 | inactive
O=[As](O)(c1cccs1)c1cccs1 | inactive
Cc1ccc(OCC(=O)OC2CN3CCC2CC3)cc1 (configuration not stated) | inactive
CP(=O)(Nc1ccc(SC(F)(F)F)cc1)Oc1ccccc1 (configuration not stated) | inactive
Nc1cccc([As](=O)(O)c2ccccc2)c1 | inactive
CCCOc1ccc(NP(C)(=O)Oc2ccc(Cl)cc2)cc1 (configuration not stated) | inactive

SMILES | outcome
O=P1(Nc2ncccn2)COc2ccccc2OC1 | inactive
CN1CCCCC1COC(=O)C1(O)c2ccccc2CCc2ccccc21 (configuration not stated) | inactive
COc1ccccc1OP(C)(=O)Nc1c(C)cccc1C (configuration not stated) | inactive
CC(C)(C)C(=O)NC(Sc1ncccn1)C(Cl)(Cl)Cl (configuration not stated) | inactive
Clc1n[nH]nc1-c1nn[nH][15n]1 | inactive
CN(CCCl)Cc1cc(Cl)c(NC2=NCCN2)c(Cl)c1 | inactive
CCOP(=O)(Nc1ccc(C)cn1)OCC | inactive
CCOP(=O)(NC(=NC(C)c1ccccc1)NC(C)c1ccccc1)OCC (configuration not stated) | inactive
O=[N+]([O-])c1cc([N+](=O)[O-])c(-n2nnc3ccccc32)c([N+](=O)[O-])c1 | inactive
CCC1=CC2Cc3nc4ccc(Cl)cc4c(N)c3C(C1)C2 (configuration not stated) | inactive
O=P1(Nc2ccccn2)COc2ccccc2OC1 | inactive
CC1(CBr)Cn2c(nc3ccccc3c2=O)S1 (configuration not stated) | inactive
O=[As](O)(c1ccccc1Br)c1ccccc1Br | inactive
CN(C(=O)Cc1ccc(Cl)c(Cl)c1)[C@@H]1CCCC[C@H]1N1CCCC1 | inactive
CC(C)/C=N\N=C(\N)N[N+](=O)[O-] | inactive
COc1ccccc1CNC(=O)COC(=O)C(O)(c1ccccc1)c1ccccc1 | inactive
O=[N+]([O-])c1cc([N+](=O)[O-])c(-c2cnn(-c3ccccc3)c2)c([N+](=O)[O-])c1 | inactive
Cc1cc(C)cc(OP(C)(=O)Nc2ccc(SC(F)(F)F)cc2)c1 (configuration not stated) | inactive
O=C(Nc1ccncc1[N+](=O)[O-])c1ccc([N+](=O)[O-])cc1[N+](=O)[O-] | inactive
CCc1ccc(OP(C)(=O)N2CCN(c3ccc([N+](=O)[O-])cc3)CC2)cc1 (configuration not stated) | inactive
CP(=O)(NC(=O)Nc1ccccc1)Oc1ccccc1 (configuration not stated) | inactive
O=C(COc1ccccc1)OC1CN2CCC1CC2 (configuration not stated) | inactive
CP(=O)(Oc1ccccc1)OC(c1ccccc1)C(F)(F)F (configuration not stated) | inactive
CP(=O)(Nc1ccc(SC(F)(F)F)cc1)Oc1ccc(Cl)cc1 (configuration not stated) | inactive

SMILES | outcome
Cc1cccc(C)c1OP(C)(=O)Nc1ccc(SC(F)(F)F)cc1 (configuration not stated) | inactive
COP1(=S)c2c(C)nn(CCC#N)c2N=C(c2ccc(F)cc2)N1C (configuration not stated) | inactive
CP(=O)(Nc1ccccn1)Oc1ccc(Cl)cc1 (configuration not stated) | inactive
CCC(C)N(CC(C)C)C(=S)SC(NC(C)=O)C(Cl)(Cl)Cl (configuration not stated) | inactive
O=[N+]([O-])c1cc([N+](=O)[O-])c(O)c([N+](=O)[O-])c1.c1ccc(Oc2ccncc2)cc1 | inactive
CCOC(=O)c1ccc(NP(C)(=O)Oc2ccc(OC)cc2)cc1 (configuration not stated) | inactive
CCOC(=O)c1ccc(NC(=O)C(C)(CCl)SC)cc1 (configuration not stated) | inactive
O=C(OC1CN2CCC1CC2)c1cccc([N+](=O)[O-])c1 (configuration not stated) | inactive
CCOP(C)(=S)SCC(=O)NC(C)C(=O)O (configuration not stated) | inactive
Cc1cc(SC(NC(=O)c2ccccc2)C(Cl)(Cl)Cl)nc(C(C)C)n1 (configuration not stated) | inactive
CCCCOc1ccc(C(=O)NCC2(N3CCCCC3)CCCCC2)cc1OC | inactive
CCOC(=O)Nc1ccc([As](=O)(O)O)c(O)c1 | inactive
O=[N+]([O-])c1ccc(Nc2ccc(Oc3ccc([N+](=O)[O-])cc3[N+](=O)[O-])cc2)c([N+](=O)[O-])c1 | inactive
CP(=O)(Nc1ccccc1Br)Oc1ccccc1 (configuration not stated) | inactive
COc1ccccc1OP(C)(=O)Nc1ccccc1 (configuration not stated) | inactive
Cc1cc(SC(NC=O)C(Cl)(Cl)Cl)ncn1 (configuration not stated) | inactive
O=P(Nc1ccccn1)(c1cccc2ccccc12)c1cccc2ccccc12 | inactive
CCOC(=O)Nc1cccc([As](=O)(O)O)c1 | inactive
CP(=S)(Nn1cnnc1)Oc1ccccc1 (configuration not stated) | inactive
Cc1ccc2nc3c(c(C)c2c1)CC(C(Cl)Cl)S3 (configuration not stated) | inactive
O=[N+]([O-])c1ccc2c(c1)C=Nc1ccccc1O2 | inactive
Cc1cccc(C)c1OP(C)(N)=O (configuration not stated) | inactive
CC(C)(C)c1ccc(OP(C)(=O)Nc2ccc(SC(F)(F)F)cc2)cc1 (configuration not stated) | inactive
Cc1ccc(OP(=O)(Nc2ccc([N+](=O)[O-])cn2)Oc2ccc(C)cc2)cc1 | inactive

SMILES | outcome
O=[As](O)(c1ccc(O)cc1)c1ccccc1O | inactive
C[As](=O)(O)c1cccc(C(=O)O)c1 | inactive
O=[N+]([O-])c1cc([N+](=O)[O-])c(Nc2cccnc2)c([N+](=O)[O-])c1 | inactive
Cc1cc(C)cc(OP(C)(N)=O)c1 (configuration not stated) | inactive
O=[N+]([O-])c1cc([N+](=O)[O-])c(-c2ccn[nH]2)s1 | inactive
COc1ccc(OP(C)(=O)Nc2cccc(F)c2)cc1 (configuration not stated) | inactive
CCN(CC)C(=S)SC(NC=O)C(Cl)(Cl)Cl (configuration not stated) | inactive
CC(C)NC(=O)NP(=O)(Oc1ccccc1)Oc1ccccc1 | inactive
COc1ccccc1OP(C)(=O)Nc1cc(Cl)ccc1C (configuration not stated) | inactive
CC(C)c1ccc(OP(=O)(Nc2ccccn2)Oc2ccccc2F)cc1 (configuration not stated) | inactive
Cc1ccc(NP(C)(=O)Oc2ccccc2)c(C)c1 (configuration not stated) | inactive
COc1ccccc1OP(C)(=O)Nc1ccc(C)cc1 (configuration not stated) | inactive
ClCCSc1nnc(-c2cccnc2)o1 | inactive
CCOC(=O)c1ccc(NP(C)(=O)Oc2ccccc2)cc1 (configuration not stated) | inactive
COc1cc(I)ccc1[As](=O)(O)O | inactive
COc1ccc2nc(NP(=O)(c3ccccc3)c3ccccc3)sc2c1 | inactive
CCN(CC)CCCOC(=O)C(O)(c1ccccc1)c1ccccc1 | inactive
Cc1cc(=O)[nH]c(N[N+](=O)[O-])n1 | inactive
O=C(OC1CN2CCC1CC2)C12CC3CC(CC(C3)C1)C2 (configuration not stated) | inactive
Cc1c2c(nc3ccccc13)SC(C(Cl)Cl)C2 (configuration not stated) | inactive
COc1ccc(N/C(=N/P(=O)(N2CCOCC2)N2CCOCC2)N2CCOCC2)cc1 | inactive
